{"source": "paper PMC8448163", "about": "(Antimicrobial Agents and Chemotherapy, 2021)", "key": {"EV-A71 isolates": {"system": "EV-A71 isolates", "assay": "microbe, parasite or virus in culture", "assay_type": "cell-based", "details": "Enterovirus A, EVA71, read-out: EC50, range"}, "dogs": {"system": "dogs", "details": "14-day repeat oral dosing"}, "[1]": {"details": "day 14, GeoMean; for LI (linearity index) / RAUC (accumulation ratio for AUC) / RCmax (accumulation ratio for Cmax): fasted"}, "EV-D68 isolates": {"system": "EV-D68 isolates", "assay": "microbe, parasite or virus in culture", "assay_type": "cell-based", "details": "Enterovirus D, EVD68, read-out: EC50, range"}, "rats": {"system": "rats", "details": "14-day repeat oral dosing"}}, "note": "Read-outs that look alike come from different tables or passages of the source."}
{"compound": "C#CC[C@@H](C(=O)N[C@H](/C=C/C(=O)OCC)C[C@@H]1CCNC1=O)n1cccc(NC(=O)c2cc(C)on2)c1=O", "note": "[V-7404]", "values": [{"measurement": "EC50", "setting": "EV-A71 isolates", "result": "22 to 509", "unit": "nM"}, {"measurement": "tolerability", "setting": "dogs", "result": "well tolerated at all dose levels and produced no adverse effects"}, {"measurement": "LI (linearity index)", "setting": "[1]; MAD cohort 1, 500 mg QD oral", "result": 1.254}, {"measurement": "RAUC (accumulation ratio for AUC)", "setting": "[1]; MAD cohort 1, 500 mg QD oral", "result": 1.258}, {"measurement": "RCmax (accumulation ratio for Cmax)", "setting": "[1]; MAD cohort 1, 500 mg QD oral", "result": 1.499}, {"measurement": "LI (linearity index)", "setting": "[1]; MAD cohort 2, 1,000 mg QD oral", "result": 0.869}, {"measurement": "RAUC (accumulation ratio for AUC)", "setting": "[1]; MAD cohort 2, 1,000 mg QD oral", "result": 0.872}, {"measurement": "RCmax (accumulation ratio for Cmax)", "setting": "[1]; MAD cohort 2, 1,000 mg QD oral", "result": 0.746}, {"measurement": "LI (linearity index)", "setting": "[1]; MAD cohort 3, 2,000 mg QD oral", "result": 0.7707}, {"measurement": "RAUC (accumulation ratio for AUC)", "setting": "[1]; MAD cohort 3, 2,000 mg QD oral", "result": 0.8168}, {"measurement": "RCmax (accumulation ratio for Cmax)", "setting": "[1]; MAD cohort 3, 2,000 mg QD oral", "result": 0.8406}, {"measurement": "RAUC", "setting": "[1]; MAD cohort 4, 2,000 mg BID", "result": 0.9987}, {"measurement": "RCmax", "setting": "[1]; MAD cohort 4, 2,000 mg BID", "result": 0.9799}, {"measurement": "EC50", "setting": "EV-D68 isolates", "result": "4 to 27", "unit": "nM"}, {"measurement": "tolerability", "setting": "rats", "result": "well tolerated at all dose levels and produced no adverse effects"}]}
